Patent publication US9085576B2 (AMGEN INC., priority 2013, dated 2015)

Sequences of proteins named here, by UniProt entry; tags and fusion partners are left off. Residues count along the entry.
UniProt P07339, 65-412, species assumed: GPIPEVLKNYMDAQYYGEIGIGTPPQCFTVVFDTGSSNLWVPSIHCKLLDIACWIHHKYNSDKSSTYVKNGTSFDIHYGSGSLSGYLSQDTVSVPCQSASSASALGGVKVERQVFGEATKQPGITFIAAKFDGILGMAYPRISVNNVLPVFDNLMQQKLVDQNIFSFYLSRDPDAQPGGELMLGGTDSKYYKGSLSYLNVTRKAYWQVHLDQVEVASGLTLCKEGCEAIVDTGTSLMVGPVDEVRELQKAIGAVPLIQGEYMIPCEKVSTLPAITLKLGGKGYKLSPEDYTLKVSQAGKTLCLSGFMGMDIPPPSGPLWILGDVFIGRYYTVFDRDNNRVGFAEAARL
UniProt P56817, 46-501: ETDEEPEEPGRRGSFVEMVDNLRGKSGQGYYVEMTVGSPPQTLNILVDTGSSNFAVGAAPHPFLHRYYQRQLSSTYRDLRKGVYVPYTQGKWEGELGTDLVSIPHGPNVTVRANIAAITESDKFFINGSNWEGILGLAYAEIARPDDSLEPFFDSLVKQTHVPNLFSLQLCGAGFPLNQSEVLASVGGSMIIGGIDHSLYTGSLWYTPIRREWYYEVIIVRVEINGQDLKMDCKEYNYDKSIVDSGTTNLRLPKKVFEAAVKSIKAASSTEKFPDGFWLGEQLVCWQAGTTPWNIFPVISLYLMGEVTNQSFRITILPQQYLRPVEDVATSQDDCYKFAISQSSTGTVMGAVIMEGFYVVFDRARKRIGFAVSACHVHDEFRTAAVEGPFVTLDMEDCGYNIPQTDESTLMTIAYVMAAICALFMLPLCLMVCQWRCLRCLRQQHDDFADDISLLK

Experiments:
[1] = biological target: Cathepsin D (Cat D) (Homo sapiens (Human), UniProt P07339); experiment: In vitro enzymatic Cathepsin D (Cat D) FRET assay; type: biochemical; conditions: read-out: CatD IC50
[2] = biological target: Beta Secretase enzyme (BACE) (Homo sapiens (Human), UniProt P56817); experiment: In vitro enzymatic BACE FRET assay; type: biochemical; conditions: read-out: BACE1 Enzyme assay IC50

| Structure (SMILES) | IC50 [1] [µM] | IC50 [2] [µM] |
| --- | --- | --- |
| N=C1N[C@](CF)(c2cc(-c3cncc(F)c3)c(CO)cc2F)[C@H]2CC2O1 (stereo partly drawn) [Example 433, (5-fluoro-4-([(1R,S),(5S,R),(6R,S)]-5-(fluoromethyl)-3-imino-2-oxa-4-azabicyclo[4.1.0]heptan-5-yl)-2-(5-fluoropyridin-3-yl)phenyl)methanol] | 613 | – |
| Cc1cc(C(F)F)cnc1C(=O)Nc1ccc(F)c([C@@]2(CF)N=C(N)O[C@@H]3C[C@@H]32)c1 [Example 201, N-(3-((1R,5S,6R)-3-amino-5-(fluoromethyl)-2-oxa-4-azabicyclo[4.1.0]hept-3-en-5-yl)-4-fluorophenyl)-5-(difluoromethyl)-3-methylpicolinamide] | 515 | – |
| NC1=NC(c2nc(NC(=O)c3ccc(Cl)cn3)ccc2F)(C(F)F)[C@H]2C[C@H]2O1 (mixture of isomers) [Example 321, rac N-(6-((1R,5S,6R)-3-amino-5-(difluoromethyl)-2-oxa-4-azabicyclo[4.1.0]hept-3-en-5-yl)-5-fluoropyridin-2-yl)-5-chloropicolinamide] | – | 0.339 |
